This is a selection; strong and weak results do not stand in their true shares. Inconclusive results are not listed. Activity calls are given as the source filed them. Calls follow the shape of the dose curve; as a rule, active = well fitted inhibition curve with a large enough effect; inconclusive = small, poorly fitted or top-dose-only effect; inactive = no such curve, though single readings can be large or run the other way.

Amino acid sequences for entries named in this document (tags omitted). A change or cut given only in a name is not applied to a line headed by its entry.
UniProt P49798: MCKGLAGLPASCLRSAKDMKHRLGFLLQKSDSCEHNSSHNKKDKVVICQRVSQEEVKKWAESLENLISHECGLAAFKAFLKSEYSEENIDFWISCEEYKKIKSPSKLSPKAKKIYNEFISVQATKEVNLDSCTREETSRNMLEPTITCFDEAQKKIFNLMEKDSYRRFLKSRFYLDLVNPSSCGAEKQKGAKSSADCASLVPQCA

Drawing on PubChem BioAssay AID504845 (National Center for Advancing Translational Sciences (NCATS), 2011), this text covers activity change, negative = inhibition for 50 molecules.

The experiment deals with Regulator of G-protein signaling 4 (Homo sapiens) (UniProt P49798). Briefly: Inhibitors of Regulator of G Protein Signaling (RGS) 4: qHTS. Also: nearly all actives have a fitted effect of over 75% in size. To be noted: Transcreener GDP fluorescence polarization, RGS4-accelerated GTP hydrolysis; at 114 µM (top of the series) unless noted. On the technique in general: Quantitative high-throughput screening tests each substance at several concentrations.
% is scaled to controls: 0 for no effect and ±100 for the full control effect.

`CC(=O)Nc1ccc([As](=O)(O)O)c(O)c1`: the activity change, negative = inhibition is inactive: -26.5%.
To `CC(=O)Nc1ccc(Oc2c([N+](=O)[O-])cc([N+](=O)[O-])cc2[N+](=O)[O-])cc1` belongs inactive: -7.37%.
As for `Cc1ccccc1CN(C)C(=O)COC(=O)C(O)(c1ccccc1)c1ccccc1`, the figure is inactive: -21.9%.
To `C[C@H]1OP(=O)(Oc2ccccc2)C[C@@H]2O[C@@H]21` (stereo not given in full) belongs inactive: -7.95%; to `C[C@@H]1C=CCP(=O)(Oc2ccccc2)O1` (stereo not given in full), inactive: -4.02%; to `CC(=O)c1ccc(N2CC2c2ccncc2)cc1` (stereo not given), inactive: -5.83%.
In the case of `N#C/C(=C\c1ccc(N(CCBr)CCBr)cc1)C(N)=O`, the activity change, negative = inhibition was inactive: -28.4%.
As for `COC(=O)C1(C)COP(=O)(NCc2ccccc2)OC1` (stereo not given), the figure is inactive: 2.62%.
To `CC(C)(C)C(=O)NC(Sc1ccccc1)C(Cl)(Cl)Cl` (stereo not given) belongs inactive: 19.2%; to `CCc1cc(O)c([N+](=O)[O-])c(C)c1[N+](=O)[O-]`, inactive: 6.27%; to `O=P1(Nc2nc3ccc(Cl)cc3s2)COc2ccccc2O1` (stereo not given), inactive: -3.99% [at 11.4 µM].
As for `CCOc1ccc(C2=NCC(CBr)S2)cc1` (stereo not given), the figure is inactive: 19.7%; as for `CC(NC(=O)COC(=O)C(O)(c1ccccc1)c1ccccc1)c1ccccc1` (stereo not given), inactive: -29.3%; as for `Cc1ccccc1OP(=O)(Nc1ccccn1)Oc1ccccc1C`, inactive: -1.78%.
Regarding `O=c1c2cc([N+](=O)[O-])ccc2[nH]c2c([N+](=O)[O-])cc([N+](=O)[O-])cc12`, the activity change, negative = inhibition is inactive: -17.5%.
To `CN(C)C(=O)Oc1noc2ccccc12` belongs inactive: -12.7%; to `O=C(OC1CN2CCC1CC2)c1ccccc1` (stereo not given), inactive: 15.4%.
As for `CCC(=O)N1C2C3N(C(=O)CC)C1C1N(C(=O)CC)C(C(N1C(=O)CC)N3C(=O)CC)N2C(=O)CC`, the figure is inactive: 10.6%; as for `COC(=O)c1cc2c(s1)N=C(c1ccccc1)N(C)P2(=O)N1CCOCC1` (stereo not given), inactive: 10.7%; as for `Cc1ccc(OP(=O)(Nc2ccccn2)Oc2ccc(C)cc2)cc1`, inactive: -50.1%.
To `CC(=O)NC(SC(=S)N(CC(C)C)CC(C)C)C(Cl)(Cl)Cl` (stereo not given) belongs inactive: 10.2%; to `O=P1(N(CCCl)CCCl)OCCC2CCCCN21` (stereo not given), inactive: 6.15%.
`c1ccc(-c2nn[nH]n2)c(-c2nn[nH]n2)c1`: the activity change, negative = inhibition was inactive: 6.55%.
As for `Cc1ccc(NP(=O)(Oc2cccc(C)c2)Oc2cccc(C)c2)nc1`, the figure is inactive: -6.94%; as for `O=C(NC1CCS(=O)(=O)C1)NP(=S)(Oc1ccccc1)Oc1ccccc1` (stereo not given), inactive: -9.27%; as for `CCNC(=S)/N=C(\N)N[N+](=O)[O-]`, inactive: 11.6%.
As for `O=C(OC1CN2CCC1CC2)c1cccc(Cl)c1` (stereo not given), the figure is inactive: -0.11%; as for `C(Cc1nn[nH]n1)Cc1nn[nH]n1`, inactive: 27.3%; as for `Nc1ccc([As](=O)(O)c2ccc([N+](=O)[O-])cc2)cc1`, inactive: -8.13%.
To `O=[As](O)(c1ccccc1)c1ccc(O)cc1` belongs inactive: 12.7%.
For `O=[N+]([O-])c1ncn(CCn2cnc([N+](=O)[O-])n2)n1`, the activity change, negative = inhibition is inactive: 1.69% [at 11.4 µM].
For `CC(=O)NC(SC(=S)N(C)C)C(Cl)(Cl)Cl` (stereo not given), the activity change, negative = inhibition was inactive: 2.46%.
As for `O=[N+]([O-])c1ccc(O)c(/C=N/Nc2ccc([N+](=O)[O-])cc2[N+](=O)[O-])c1`, the figure is inactive: -0.527%; as for `O=P(Nc1nc2ccccc2s1)(c1ccccc1)c1ccccc1`, inactive: -5.88%; as for `C[C@H]1OP(=O)(Oc2ccccc2)[C@H](O)[C@H](O)[C@H]1N=[N+]=[N-]` (stereo not given in full), inactive: 7.44%.
As for `CN(C)C1(CNC(=O)c2ccc(Cl)c(S(N)(=O)=O)c2)CCCCC1`, the activity change, negative = inhibition is inactive: -17.5%.
As for `O=P(Nc1ccccn1)(c1ccc(Br)cc1)c1ccc(Br)cc1`, the figure is inactive: -16.8%; as for `COc1ccc(N)c([N+](=O)[O-])c1[N+](=O)[O-]`, inactive: -1.46%.
Consider `c1nnnn1CCn1cnnn1`, for which the activity change, negative = inhibition is inactive: 2.39%.
As for `O=P(Nc1nccs1)(c1ccccc1)c1ccccc1`, the figure is inactive: 18.7%; as for `CC(C)C(=O)NC(Sc1ccccc1)C(Cl)(Cl)Cl` (stereo not given), inactive: -6.06%; as for `CC1CCN(C(=O)Oc2c(Cl)cc(Cl)c3cccnc23)CC1`, inactive: -11.6%.
As for `CC(C)=N/N=C(\N)N[N+](=O)[O-]`, the figure is inactive: 9.75%; as for `CN(C)C(=O)OCCc1n(C)cc[n+]1C`, inactive: -11.2%.
On to `CCN(/C(=N/P(=O)(N1CCOCC1)N1CCOCC1)N1CCOCC1)c1ccc(OC)cc1`, for which the activity change, negative = inhibition was inactive: 2.63%.
To `Nc1ccc([As](=O)(O)c2ccc(N)cc2)cc1` belongs inactive: 14.5%.
To `Cc1ccc(NP(=O)(Oc2ccccc2)Oc2ccccc2)nc1` belongs inactive: 4.29%; to `O=[N+]([O-])c1cc([N+](=O)[O-])c(CCNc2ccccc2)c([N+](=O)[O-])c1`, inactive: -20.9%; to `CC(=O)N1C2C3N(C(C)=O)C1C1N(C(C)=O)C(C(N1C(C)=O)N3C(C)=O)N2C(C)=O`, inactive: -12.1%.
To `O=[N+]([O-])c1cccc2n[nH]nc12` belongs inactive: 0.332%.
